The values below come from patent US12527775B2 (priority 2020, dated 2026).

Protein sequences, listed by entry. Tags and fused reporters are not part of them. Residues count along the entry.
UniProt P28223, whole entry: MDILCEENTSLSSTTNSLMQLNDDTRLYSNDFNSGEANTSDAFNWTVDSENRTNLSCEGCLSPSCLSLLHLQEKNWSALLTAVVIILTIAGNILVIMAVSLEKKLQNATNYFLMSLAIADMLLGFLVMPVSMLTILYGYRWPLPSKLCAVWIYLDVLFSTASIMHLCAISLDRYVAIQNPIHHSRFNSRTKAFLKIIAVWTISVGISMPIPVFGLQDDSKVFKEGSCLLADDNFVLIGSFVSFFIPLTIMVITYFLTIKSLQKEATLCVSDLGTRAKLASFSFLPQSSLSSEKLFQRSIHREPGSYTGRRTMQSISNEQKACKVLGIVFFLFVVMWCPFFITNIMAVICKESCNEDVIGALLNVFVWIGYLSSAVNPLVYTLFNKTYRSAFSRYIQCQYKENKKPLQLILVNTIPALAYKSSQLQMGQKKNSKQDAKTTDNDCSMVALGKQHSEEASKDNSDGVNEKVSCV
UniProt P28335, 33-458 limits assumed: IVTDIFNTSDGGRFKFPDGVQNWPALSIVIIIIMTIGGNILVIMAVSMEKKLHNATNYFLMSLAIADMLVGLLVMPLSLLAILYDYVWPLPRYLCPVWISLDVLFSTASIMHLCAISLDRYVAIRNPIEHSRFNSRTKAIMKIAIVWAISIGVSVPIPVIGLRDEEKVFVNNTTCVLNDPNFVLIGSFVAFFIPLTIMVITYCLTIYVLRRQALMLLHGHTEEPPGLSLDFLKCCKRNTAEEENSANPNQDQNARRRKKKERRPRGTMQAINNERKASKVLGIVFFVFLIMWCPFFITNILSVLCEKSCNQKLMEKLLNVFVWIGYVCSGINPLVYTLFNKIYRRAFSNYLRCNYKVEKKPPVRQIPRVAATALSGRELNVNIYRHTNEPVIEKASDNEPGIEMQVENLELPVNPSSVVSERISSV

The structures appear in SMILES notation.

The first assay deals with human recombinant 5-HT2A receptor (Homo sapiens (Human), UniProt P28223). Conditions: read-out: h-5-HT2A Ki.
By Ki is commonly meant the equilibrium dissociation constant of an inhibitor or competing ligand from its target. For the molecule `CC(C)COc1ccc(CNC(=O)N(Cc2cccc(F)n2)C2CCN(C)CC2)cc1`, the Ki is 10 to 100 nM.

Take `Cc1cc(CN(C(=O)NCc2ccc(OCC(C)C)cc2)C2CCN(C)CC2)nn1CF`: the inhibition constant (Ki) was in the range of 10 to 100 nM.

Consider `CC(C)COc1ccc(CNC(=O)N(Cc2nccc3ccccc23)C2CCN(C)CC2)cc1`, for which the Ki is 10 to 100 nM.

On to `CC(C)COc1ccc(CNC(=O)N(Cc2ccc(C#N)cn2)C2CCN(C)CC2)cc1`, for which the Ki is 10 to 100 nM.

Take `CC(C)COc1ccc(CNC(=O)N(Cc2cocn2)C2CCN(C)CC2)cc1`: the Ki lay within 10 to 100 nM.

Take `CC(C)COc1ccc(CNC(=O)N(Cc2ncccc2F)C2CCN(C)CC2)cc1`: the inhibition constant Ki fell in the range of 10 to 100 nM.

`CC(C)COc1ccc(CNC(=O)N(Cc2nccs2)C2CCN(C)CC2)cc1`: the Ki was 10 to 100 nM.

Take `Cc1cc(CN(C(=O)NCc2ccc(OCC(C)C)cc2)C2CCN(C)CC2)no1`: the inhibition constant (Ki) lay within 10 to 100 nM.

`CC(C)COc1ccc(CNC(=O)N(Cc2ncc(F)cn2)C2CCN(C)CC2)cc1`: the inhibition constant Ki fell in the range of 10 to 100 nM.

In the case of `COCc1ccc(CNC(=O)N(Cc2ccc(F)cn2)C2CCN(C)CC2)cc1`, the Ki was 10 to 100 nM.

As for `CC(C)COc1ccc(CNC(=O)N(Cc2cc[nH]c2)C2CCN(C)CC2)cc1`, the inhibitory constant (Ki) was in the range of 10 to 100 nM.

Take `CC(C)COc1ccc(CNC(=O)N(Cc2cc(F)ccn2)C2CCN(C)CC2)cc1`: the inhibition constant Ki was in the range of 10 to 100 nM.

The next assay has as its target human recombinant 5-HT2C receptor (Homo sapiens (Human), UniProt P28335). The note with it: read-out: h5-HT2C Ki.
On to `CC(C)COc1ccc(CNC(=O)N(Cc2cccs2)C2CCN(C)CC2)cc1`, for which the Ki lay within 10 to 100 nM.

Take `CC(C)COc1ccc(CNC(=O)N(Cc2ccc(F)cn2)[C@@H]2CCN3CCC[C@@H]3C2)cc1` (racemic): the Ki is 10 to 100 nM.

Take `CC(C)COc1ccc(CNC(=O)N(Cc2cccc3cccnc23)C2CCN(C)CC2)cc1`: the Ki fell in the range of 10 to 100 nM.

`CC(C)COc1ccc(CNC(=O)N(Cc2ccc(C(F)(F)F)cn2)C2CCN(C)CC2)cc1`: the Ki is 10 to 100 nM.

For the molecule `CC(C)COc1ccc(CNC(=O)N(Cc2cccc3cc[nH]c23)C2CCN(C)CC2)cc1`, the inhibition constant (Ki) is 10 to 100 nM.

For the molecule `Cc1csc(CN(C(=O)NCc2ccc(OCC(C)C)cc2)C2CCN(C)CC2)c1`, the Ki fell in the range of 10 to 100 nM.

For `CN1CCC(N(Cc2ccc(F)cn2)C(=O)NCc2ccc(OC(F)F)cc2)CC1`, the inhibitory constant (Ki) fell in the range of 10 to 100 nM.

As to `Cc1ccc(CN(C(=O)NCc2ccc(OCC(C)C)cc2)C2CCN(C)CC2)s1`, the inhibition constant Ki was 10 to 100 nM.

`CC(C)COc1ccc(CNC(=O)N(Cc2ncc(F)cc2F)C2CCN(C)CC2)cc1`: the inhibition constant Ki lay in the range of 10 to 100 nM.

`CN1CCC(N(Cc2ccc(F)cn2)C(=O)NCc2ccc(OCC3CC3)cc2)CC1`: the inhibition constant (Ki) was 10 to 100 nM.

Regarding `CC(C)COc1ccc(CNC(=O)N(Cc2ccccn2)C2CCN(C)CC2)cc1`, the Ki lay within 10 to 100 nM.

Turning to `CC(C)COc1ccc(CNC(=O)N(Cc2ncc(F)cn2)C2CCN(C)CC2)cc1`, the Ki was in the range of 10 to 100 nM.

On to `COc1ccc(CNC(=O)N(Cc2ccc(F)cn2)C2CCNCC23CC3)cc1` (racemic), for which the inhibition constant (Ki) was in the range of 10 to 100 nM.

For the molecule `CC(C)COc1ccc(CNC(=O)N(Cc2ccc(F)cn2)C2CCN(C)CC2(F)F)cc1` (racemic), the inhibitory constant (Ki) lay within 10 to 100 nM.

On to `COc1ccc(CN(C(=O)NCc2ccc(OCC(C)C)cc2)C2CCN(C)CC2)nc1`, for which the inhibition constant (Ki) was in the range of 10 to 100 nM.

`CC(C)COc1ccc(CNC(=O)N(Cc2cn(C)cn2)C2CCN(C)CC2)cc1`: the Ki fell in the range of 10 to 100 nM.

Staying with this assay, now noted: read-out: h-5-HT2C Ki.
Take `Cc1cc(CN(C(=O)NCc2ccc(OCC(C)C)cc2)C2CCN(C)CC2)nn1CF`: the Ki is 10 to 100 nM.

As to `CC(C)COc1ccc(CNC(=O)N(Cc2cc(F)n(C)n2)C2CCN(C)CC2)cc1`, the Ki was in the range of 10 to 100 nM.

In the case of `CC(C)COc1ccc(CNC(=O)N(Cc2ccn(C)n2)[C@H]2CCNC[C@H]2F)cc1`, the Ki lay in the range of 10 to 100 nM.
